Experimental data taken from patent US10941187B2 (The United States of America, as represented by the …, priority 2001, dated 2021).
Entries after “also recorded” stand apart in the source; their conditions may differ.

Tested on: RIN 1048-36 cells
Test: Insulin secretion in vitro in RIN 1048-36 cells
Format: cell-based, rat
Settings: peptide 1×10−8 M, 5 mM glucose, 1 h, compared with GLP-1 and exendin-4

CC[C@H](C)[C@H](NC(=O)[C@H](Cc1ccccc1)NC(=O)[C@H](CCC(=O)O)NC(=O)[C@H](CCCCN)NC(=O)[C@H](C)NC(=O)[C@H](C)NC(=O)[C@H](CCC(N)=O)NC(=O)CNC(=O)[C@H](CCC(=O)O)NC(=O)[C@H](CC(C)C)NC(=O)[C@H](Cc1ccc(O)cc1)NC(=O)[C@H](CO)NC(=O)[C@H](CO)NC(=O)[C@@H](NC(=O)[C@H](CC(=O)O)NC(=O)[C@H](CO)NC(=O)[C@@H](NC(=O)[C@H](Cc1ccccc1)NC(=O)[C@@H](NC(=O)CNC(=O)[C@H](CCC(=O)O)NC(=O)[C@H](C)NC(=O)[C@@H](N)Cc1c[nH]cn1)[C@@H](C)O)[C@@H](C)O)C(C)C)C(=O)N[C@@H](C)C(=O)N[C@@H](Cc1c[nH]c2ccccc12)C(=O)N[C@@H](CC(C)C)C(=O)N[C@H](C(=O)N[C@@H](CCCCN)C(=O)NCC(=O)N[C@@H](CCCNC(=N)N)C(=O)N1CCC[C@H]1C(=O)N[C@@H](CO)C(=O)N[C@@H](CO)C(=O)NCC(=O)N[C@@H](C)C(=O)N1CCC[C@H]1C(=O)N1CCC[C@H]1C(=O)N1CCC[C@H]1C(=O)N[C@@H](CO)C(N)=O)C(C)C [peptide 12]
induction of insulin secretion: substantially greater effect on insulin secretion than either GLP-1 or exendin-4; also recorded: remains active and actually has an activity that exceeds that of exendin-4

CC[C@H](C)[C@H](NC(=O)[C@H](Cc1ccccc1)NC(=O)[C@H](CCC(=O)O)NC(=O)[C@H](CCCCN)NC(=O)[C@H](C)NC(=O)[C@H](C)NC(=O)[C@H](CCC(N)=O)NC(=O)CNC(=O)[C@H](CCC(=O)O)NC(=O)[C@H](CC(C)C)NC(=O)[C@H](Cc1ccc(O)cc1)NC(=O)[C@H](CO)NC(=O)[C@H](CO)NC(=O)[C@@H](NC(=O)[C@H](CC(=O)O)NC(=O)[C@H](CO)NC(=O)[C@@H](NC(=O)[C@H](Cc1ccccc1)NC(=O)[C@@H](NC(=O)CNC(=O)[C@H](CCC(=O)O)NC(=O)CCCCCNC(=O)CCCCCNC(=O)CCCCCNC(=O)CCCCCNC(=O)CCCCCNC(=O)CCCCCNC(=O)CCCCCNC(=O)CCCCCNC(=O)[C@H](C)NC(=O)[C@@H](N)Cc1c[nH]cn1)[C@@H](C)O)[C@@H](C)O)C(C)C)C(=O)N[C@@H](C)C(=O)N[C@@H](Cc1c[nH]c2ccccc12)C(=O)N[C@@H](CC(C)C)C(=O)N[C@H](C(=O)N[C@@H](CCCCN)C(=O)NCC(=O)N[C@@H](CCCNC(=N)N)C(N)=O)C(C)C [GLP-1 (Aha^9)8, GLP-1 (6-aminohexanoic acid^9)8]
induction of insulin secretion (listed as peptide 26): did not induce insulin secretion; also recorded: abrogated the peptides' ability to induce insulin secretion

CC[C@H](C)[C@H](NC(=O)[C@H](Cc1ccccc1)NC(=O)[C@H](CCC(=O)O)NC(=O)[C@H](CCCCN)NC(=O)[C@H](C)NC(=O)[C@H](C)NC(=O)[C@H](CCC(N)=O)NC(=O)CNC(=O)[C@H](CCC(=O)O)NC(=O)[C@H](CC(C)C)NC(=O)[C@H](Cc1ccc(O)cc1)NC(=O)[C@H](CO)NC(=O)[C@H](CO)NC(=O)[C@@H](NC(=O)[C@H](CC(=O)O)NC(=O)[C@H](CO)NC(=O)[C@@H](NC(=O)[C@H](Cc1ccccc1)NC(=O)[C@@H](NC(=O)CNC(=O)[C@H](CCC(=O)O)NC(=O)CCCCCNC(=O)CCCCCNC(=O)CCCCCNC(=O)CCCCCNC(=O)[C@H](C)NC(=O)[C@@H](N)Cc1c[nH]cn1)[C@@H](C)O)[C@@H](C)O)C(C)C)C(=O)N[C@@H](C)C(=O)N[C@@H](Cc1c[nH]c2ccccc12)C(=O)N[C@@H](CC(C)C)C(=O)N[C@H](C(=O)N[C@@H](CCCCN)C(=O)NCC(=O)N[C@@H](CCCNC(=N)N)C(N)=O)C(C)C [GLP-1 (Aha^9)4, GLP-1 (6-aminohexanoic acid^9)4]
induction of insulin secretion (listed as peptide 25): did not induce insulin secretion; also recorded: abrogated the peptides' ability to induce insulin secretion
